This passage reports Emax results from paper PMC7072973, “Differential Signaling Profiles of MC4R Mutations with Three Different Ligands” (International Journal of Molecular Sciences, 2020).

Protein sequences, listed by entry. Tags and fused reporters are not part of them.
UniProt P32245, whole entry H158R: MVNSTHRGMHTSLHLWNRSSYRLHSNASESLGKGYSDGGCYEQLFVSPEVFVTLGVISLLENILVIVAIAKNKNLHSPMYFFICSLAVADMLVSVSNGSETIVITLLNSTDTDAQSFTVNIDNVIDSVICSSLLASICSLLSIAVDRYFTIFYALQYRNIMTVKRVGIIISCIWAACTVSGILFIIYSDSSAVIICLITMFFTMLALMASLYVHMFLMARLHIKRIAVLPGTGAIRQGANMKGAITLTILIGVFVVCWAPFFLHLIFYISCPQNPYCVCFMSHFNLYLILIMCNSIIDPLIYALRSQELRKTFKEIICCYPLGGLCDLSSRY

The target of this test is MC4R H158R (Homo sapiens, UniProt P32245, H158R). It counts as cell-based. More on the design: expressed in transfected cells; host or cells: HEK293. The conditions noted are these: HEK293, β-arrestin2, 5 min, mean ± SEM, 3 to 7 experiments in triplicates. How it is done:
A total of 16–20 h after transfection in 6-well plates, cells were detached, and cell number was adjusted to 2.2 × 10^5 cells/mL in Opti-MEM without phenol red supplemented with 4% FBS. Cells were divided into two pools, adding either the acceptor NanoBRET™ Ligand 618 (1 µL/mL cells of 0.1 mM solution) or the same amount of DMSO as background control. After reseeding 90 µL cell suspension/well into a white 96-well plates, incubation was continued for 4–6 h.
For measurements, 25 µL of NanoBRET™ substrate was injected using a plate reader (Mithras LB 940). Donor and acceptor emission were measured at 460 nm and 610 nm, respectively, and the BRET ratio was calculated by dividing acceptor emission by donor emission:(1) BRET ratio =emissionacceptor/emissiondonor
The ratio was corrected for background bleed through by subtracting of the background ratio (no acceptor DMSO control) and conversion to milliBRET units (mBU):(2) corrected BRET ratio [mBU]=(BRET ratiosample−BRET rationo acceptor control)×1000
To calculate the difference between stimulated and basal interaction, the NET BRET was acquired using the formula:(3) NET BRET = corrected BRET ratiostim− corrected BRET ratiobasal

As to `CSCC[C@H](NC(=O)[C@H](CCCNC(=N)N)NC(=O)[C@H](Cc1ccc(O)cc1)NC(=O)[C@@H]1CCCN1C(=O)CNC(=O)[C@H](CCC(=O)O)NC(=O)[C@H](CC(=O)O)NC(=O)[C@H](CCCCN)NC(=O)[C@H](CCCCN)NC(=O)[C@H](CCC(=O)O)NC(=O)[C@H](C)N)C(=O)N[C@@H](CCC(=O)O)C(=O)N[C@@H](Cc1c[nH]cn1)C(=O)N[C@@H](Cc1ccccc1)C(=O)N[C@@H](CCCNC(=N)N)C(=O)N[C@@H](Cc1c[nH]c2ccccc12)C(=O)NCC(=O)N[C@@H](CO)C(=O)N1CCC[C@H]1C(=O)N1CCC[C@H]1C(=O)N[C@@H](CCCCN)C(=O)N[C@@H](CC(=O)O)C(=O)O` [β-MSH, β-melanocyte stimulating hormone], the Emax came out at 1.68 fold over WT basal.
